1 sequence from article PMC8654284 (Science Advances, 2021) can be followed below.

By UniProt entry, the sequences of proteins in these tests, tags left out.
UniProt P25103, whole entry F25Y: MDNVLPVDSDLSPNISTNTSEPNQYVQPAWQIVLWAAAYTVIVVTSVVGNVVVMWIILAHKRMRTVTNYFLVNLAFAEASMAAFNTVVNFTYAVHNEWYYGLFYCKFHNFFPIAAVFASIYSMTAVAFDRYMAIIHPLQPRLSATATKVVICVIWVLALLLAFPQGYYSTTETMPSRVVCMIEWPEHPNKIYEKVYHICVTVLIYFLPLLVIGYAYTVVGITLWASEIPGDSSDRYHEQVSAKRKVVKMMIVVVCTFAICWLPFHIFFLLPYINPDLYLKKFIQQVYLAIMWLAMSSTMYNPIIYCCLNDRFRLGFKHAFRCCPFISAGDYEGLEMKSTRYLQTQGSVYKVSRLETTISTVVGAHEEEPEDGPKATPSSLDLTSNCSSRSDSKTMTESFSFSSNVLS
UniProt P25103, whole entry Y92F: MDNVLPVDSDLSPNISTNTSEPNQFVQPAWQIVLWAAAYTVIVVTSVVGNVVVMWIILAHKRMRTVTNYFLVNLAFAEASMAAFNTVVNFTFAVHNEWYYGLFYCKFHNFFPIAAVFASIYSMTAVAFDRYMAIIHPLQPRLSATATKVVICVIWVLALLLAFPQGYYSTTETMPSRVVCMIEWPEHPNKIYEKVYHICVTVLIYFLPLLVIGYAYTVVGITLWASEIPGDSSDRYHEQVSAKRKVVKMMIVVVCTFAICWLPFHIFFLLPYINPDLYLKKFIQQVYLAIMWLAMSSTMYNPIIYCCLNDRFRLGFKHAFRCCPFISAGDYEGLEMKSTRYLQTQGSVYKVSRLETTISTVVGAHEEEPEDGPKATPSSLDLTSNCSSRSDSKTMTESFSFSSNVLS

One test concerns the target NK1R F25Y (Homo sapiens, UniProt P25103, F25Y). The experiment in a line: Whole-cell SP-HL488 saturation binding, F25Y. The note with it: mutation F25Y vs wt; measured with SP-HL488.
In another test the target is NK1R Y92F (Homo sapiens, UniProt P25103, Y92F). The experiment in a line: Whole-cell SP-HL488 saturation binding, Y92F. The note with it: mutation Y92F vs wt; measured with SP-HL488.

For the sequence RPKPQQFFGLM [SP, substance P], at NK1R F25Y, the “change in binding affinity” value is “subtle change in binding affinity”. Moreover, at NK1R Y92F, the SP binding affinity result is listed as “unchanged”.
